Ka data for 1 molecule are collected here from patent US20110123543A1 (MATHILDA AND TERENCE KENNEDY INSTITUTE OF RHEUMATOLOGY TRUST, published 2011).

Chains of the proteins cited; added tags and fusions are not shown. Residues count along the entry.
UniProt P01375, 77-233 limits assumed: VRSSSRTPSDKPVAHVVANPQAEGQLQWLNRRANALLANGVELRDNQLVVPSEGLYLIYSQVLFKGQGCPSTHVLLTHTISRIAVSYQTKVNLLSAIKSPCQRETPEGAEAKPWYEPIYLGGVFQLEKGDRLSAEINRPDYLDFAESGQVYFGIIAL

This experiment concerns the target T1, recombinant human TNFα (rhTNF, Dainippon, Osaka, Japan) (human, UniProt P01375 77-233).
T1 construct: also called rhTNFα; hTNFα
The experiment in a line: Scatchard analysis; direct binding of 125I-labelled antibody to rhTNFα immobilized in a 96-well plate.

B1: murine monoclonal antibody (mAb) A2 (antibody, V domains shown)
VH: EVKLEESGGGLVQPGGSMKLSCVASGFIFSNHWMNWVRQSPEKGLEWVAEIRSKSINSATHYAESVKGRFTISRDDSKSAVYLQMTDLRTEDTGVYYCSRNYYGSTYDYWGQGTTLTVS
VL: DILLTQSPAILSVSPGERVSFSCRASQFVGSSIHWYQQRTNGSPRLLIKYASESMSGIPSRFSGSGSGTDFTLSINTVESEDIADYYCQQSHSWPFTFGSGTNLEVK
As to B1, the Ka is 5e+08 M⁻¹.
